Legend:
[1] = tested on: brain metastases from HER2 overexpressing breast cancer; settings: HER2-positive disease, treated with trastuzumab after the diagnosis of brain metastasis; cited from earlier work
[2] = tested on: HER2-positive metastatic breast cancer; settings: INV, all treated patients, initial analysis

Substance	median survival [1]	PFS (months) median [2]
Trastuzumab: recombinant DNA-derived, IgG1 kappa, humanized monoclonal anti-HER2 antibody (CAS 180288-69-1)	11.9 months	–
trastuzumab-MCC-DM1 [T-DM1]	–	5.5 months

— patent publication US20170202973A1 (GENENTECH, INC., priority 2009, published 2017)
